Data from patent US20250127909A1.

Assays:
BRD4:TCIP1 = test: BLI; ternary complex with TCIP1
[1] = biological target: BRD4^BD1 (bromodomain 1 of BRD4), tag-cleaved version (UniProt O60885); test: ITC, ternary complex: BCL6^BTB titrated into BRD4^BD1 pre-incubated 20:1 with the small molecule TCIP1
[2] = biological target: BCL6^BTB-AviTag, biotinylated (BTB domain of BCL6, amino acids 5-129, C8Q, C67R, C84N) (UniProt P41182); test: BLI, ternary complex: biotinylated BCL6^BTB on the tip, 50 µM BRD4^BD1 in the well with titration of the small molecule TCIP1
[3] = biological target: BCL6^BTB-AviTag, biotinylated (BTB domain of BCL6, amino acids 5-129, C8Q, C67R, C84N) (UniProt P41182); test: BLI, ternary complex with TCIP1: biotinylated BCL6^BTB on the tip, excess BRD4^BD1 in the well

Substance: BCL6
- Kd (BRD4:TCIP1): 0.316 µM

Substance: BCL6^BTB (BTB domain of BCL6, amino acids 5-129, C8Q, C67R, C84N), tag-cleaved version (from UniProt P41182 5-129)
- Kd [1]: 0.34 µM

Substance: BRD4^BD1 (bromodomain 1 of BRD4), tag-cleaved version (from UniProt O60885 44-168)
- Kd [2]: 0.316 µM
- half-life [3]: 30 s
